In experiment [1] the test system is PRMT1 (protein arginine N-methyltransferase 1). The experiment is described as follows: PRMT1 binders on small-molecule microarrays, primary screen, biochemical, small-molecule microarray, 635 nm fluorescence (AID 1088).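 Further: binding of Prmt1 protein to compounds spotted on small-molecule microarray slides.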 The settings on record: small-molecule microarray binding, higher = more signal.
Experiment [2] is described as follows: yeast growth modulation, basal conditions, primary screen, YJM789 clinical isolate, OD600, 24 h (AID 1089).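 Further: growth of clinical yeast isolate S. cerevisiae YJM 789 seeded 1000 cells per well; test concentration not given here.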 The settings on record: S. cerevisiae YJM789 growth, higher = more signal, called active from +8 up or from −8 down.
Experiment [3] addresses Torsin-1A-interacting protein 2 (Homo sapiens) (UniProt Q8NFQ8). The experiment is described as follows: LULL1 binders on small-molecule microarray, primary screen, cell lysate, human LULL1 lysate, 635/667 nm fluorescence (AID 1092).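 Further: probe is lysate of COS7 cells overexpressing human LULL1; score merges per-feature 667 nm fluorescence with signal-to-noise.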 The settings on record: hLULL1 lysate binding, 635 nm fluorescence, higher = more signal.
A short description of experiment [4]: small-molecule microarray binders of probe aLefty2, primary screen, biochemical, biotinylated probe, 635/667 nm fluorescence (AID 1094).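 Further: score merges spot fluorescence near 667 nm with spot signal-to-noise ratio.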 The conditions noted are these: higher = more signal.
In experiment [5] the test system is Noggin (protein binding on small-molecule microarray). The experiment is described as follows: Noggin binders on small-molecule microarray, primary screen, biochemical, 635/667 nm fluorescence (AID 1095).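 Further: score merges 667 nm feature fluorescence with signal to noise over triplicate slides.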 The settings on record: 635 nm fluorescence, higher = more signal.
Experiment [6] addresses Neurogenic locus notch homolog protein 3 (Homo sapiens) (UniProt Q9UM47). Kind of experiment: NOTCH3 binders on small-molecule microarray, primary screen, biochemical, 635/667 nm fluorescence (AID 1096). The settings on record: NOTCH3 binding, 635 nm fluorescence, higher = more signal.
Experiment [7] is described as follows: small-molecule microarray binders of probe aEGFR, primary screen, biochemical, biotinylated probe, 635/667 nm fluorescence (AID 1097).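 Further: probe is a biotinylated anti-EGFR antibody binding compounds printed on slides; score combines fluorescence near 667 nm and signal to noise of each spot.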 The settings on record: higher = more signal.
A short description of experiment [8]: small-molecule microarray binders of probe aDKK1, primary screen, biochemical, biotinylated probe, 635/667 nm fluorescence (AID 1099).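 Further: score merges 667nm spot fluorescence with signal to noise across triplicate slides; reference of the scale not given here.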 The settings on record: higher = more signal.
A short description of experiment [9]: small-molecule microarray binders of probe aCHRDL2, primary screen, biochemical, biotinylated probe, 635/667 nm fluorescence (AID 1100). The settings on record: higher = more signal.
Experiment [10] can be described thus: splicing luciferase reporter signal modulators, primary screen, spliceosome inhibition project, cell-based, HEK293, splice +/- reporter (AID 1101).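 Further: HEK293 cells carrying a splicing-competent luciferase reporter gene; test concentration not given here.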 The settings on record: luminescence, 24 h, higher = more signal, called active from +8 up or from −8 down. Background: In a reporter assay the amount or activity of a reporter protein is the signal.

The chains behind the UniProt entries cited, without tags or fusion partners. Where a name states a change or a piece, a line headed by the entry shows the natural chain unless it says otherwise.
UniProt Q8NFQ8: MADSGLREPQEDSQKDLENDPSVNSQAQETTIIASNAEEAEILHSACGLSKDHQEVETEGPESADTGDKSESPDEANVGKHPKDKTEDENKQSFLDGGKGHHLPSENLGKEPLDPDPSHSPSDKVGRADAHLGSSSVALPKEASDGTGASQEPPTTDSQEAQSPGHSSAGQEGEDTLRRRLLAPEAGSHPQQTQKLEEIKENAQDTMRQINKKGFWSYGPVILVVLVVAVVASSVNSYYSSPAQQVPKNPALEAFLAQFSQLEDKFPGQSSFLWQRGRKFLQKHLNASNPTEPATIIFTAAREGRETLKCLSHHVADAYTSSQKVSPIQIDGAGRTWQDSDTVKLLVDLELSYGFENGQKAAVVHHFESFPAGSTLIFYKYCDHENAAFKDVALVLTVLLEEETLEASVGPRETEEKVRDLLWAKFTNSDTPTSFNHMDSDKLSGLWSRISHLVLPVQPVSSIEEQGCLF
UniProt Q9UM47, whole entry, looked up: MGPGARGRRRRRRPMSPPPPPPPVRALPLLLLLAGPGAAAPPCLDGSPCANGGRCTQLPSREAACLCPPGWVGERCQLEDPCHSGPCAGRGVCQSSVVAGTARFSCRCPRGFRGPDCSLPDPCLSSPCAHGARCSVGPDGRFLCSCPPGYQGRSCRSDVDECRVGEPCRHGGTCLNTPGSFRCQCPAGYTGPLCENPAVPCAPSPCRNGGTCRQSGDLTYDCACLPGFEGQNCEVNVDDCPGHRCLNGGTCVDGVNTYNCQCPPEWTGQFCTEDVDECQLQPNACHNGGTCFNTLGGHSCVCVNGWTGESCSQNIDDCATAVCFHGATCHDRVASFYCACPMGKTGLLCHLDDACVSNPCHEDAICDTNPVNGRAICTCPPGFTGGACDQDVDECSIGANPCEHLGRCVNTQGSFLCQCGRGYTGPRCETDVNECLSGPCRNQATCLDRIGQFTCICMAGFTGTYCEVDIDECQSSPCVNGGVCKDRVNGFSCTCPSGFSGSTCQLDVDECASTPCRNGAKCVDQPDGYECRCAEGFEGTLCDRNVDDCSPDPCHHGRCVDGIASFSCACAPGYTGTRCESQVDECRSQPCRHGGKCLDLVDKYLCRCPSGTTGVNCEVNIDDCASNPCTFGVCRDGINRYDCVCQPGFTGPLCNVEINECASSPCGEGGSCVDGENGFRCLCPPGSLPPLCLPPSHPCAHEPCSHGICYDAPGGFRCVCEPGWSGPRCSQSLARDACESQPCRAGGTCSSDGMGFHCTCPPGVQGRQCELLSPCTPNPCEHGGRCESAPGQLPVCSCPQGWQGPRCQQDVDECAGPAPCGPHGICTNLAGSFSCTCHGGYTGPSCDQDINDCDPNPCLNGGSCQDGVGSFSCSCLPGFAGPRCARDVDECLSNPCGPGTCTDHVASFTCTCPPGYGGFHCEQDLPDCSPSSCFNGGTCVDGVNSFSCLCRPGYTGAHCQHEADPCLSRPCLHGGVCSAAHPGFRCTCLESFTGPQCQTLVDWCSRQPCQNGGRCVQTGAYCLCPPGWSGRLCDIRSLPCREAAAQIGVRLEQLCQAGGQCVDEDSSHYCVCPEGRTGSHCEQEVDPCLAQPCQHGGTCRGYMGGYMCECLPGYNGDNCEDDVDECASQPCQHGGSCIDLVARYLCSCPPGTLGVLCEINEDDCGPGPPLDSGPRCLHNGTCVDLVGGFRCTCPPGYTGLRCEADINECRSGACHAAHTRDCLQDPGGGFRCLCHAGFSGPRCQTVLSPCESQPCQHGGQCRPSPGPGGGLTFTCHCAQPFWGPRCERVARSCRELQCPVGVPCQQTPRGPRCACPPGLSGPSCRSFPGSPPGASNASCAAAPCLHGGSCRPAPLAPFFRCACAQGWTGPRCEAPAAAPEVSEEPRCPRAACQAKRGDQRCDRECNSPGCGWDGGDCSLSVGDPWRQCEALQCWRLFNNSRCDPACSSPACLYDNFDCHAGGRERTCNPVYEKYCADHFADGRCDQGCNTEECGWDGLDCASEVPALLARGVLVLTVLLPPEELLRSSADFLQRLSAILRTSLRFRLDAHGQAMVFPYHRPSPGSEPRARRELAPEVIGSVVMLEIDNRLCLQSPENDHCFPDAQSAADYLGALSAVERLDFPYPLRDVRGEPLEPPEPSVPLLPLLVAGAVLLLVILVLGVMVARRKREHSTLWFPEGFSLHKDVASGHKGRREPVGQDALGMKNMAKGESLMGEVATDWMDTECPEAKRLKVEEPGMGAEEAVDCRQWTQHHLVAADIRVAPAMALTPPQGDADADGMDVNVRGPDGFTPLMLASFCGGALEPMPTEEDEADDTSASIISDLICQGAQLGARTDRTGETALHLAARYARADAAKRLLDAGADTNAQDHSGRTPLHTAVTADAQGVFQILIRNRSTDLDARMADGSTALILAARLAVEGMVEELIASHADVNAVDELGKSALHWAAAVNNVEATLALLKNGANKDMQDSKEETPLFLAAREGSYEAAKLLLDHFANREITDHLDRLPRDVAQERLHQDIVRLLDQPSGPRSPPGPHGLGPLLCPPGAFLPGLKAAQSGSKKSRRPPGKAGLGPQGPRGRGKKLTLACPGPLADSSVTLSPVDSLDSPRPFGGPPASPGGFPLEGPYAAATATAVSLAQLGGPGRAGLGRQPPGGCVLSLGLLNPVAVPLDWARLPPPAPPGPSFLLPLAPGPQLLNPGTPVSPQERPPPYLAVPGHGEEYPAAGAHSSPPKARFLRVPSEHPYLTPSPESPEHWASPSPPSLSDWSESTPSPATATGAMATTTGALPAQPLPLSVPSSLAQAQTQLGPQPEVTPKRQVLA

This is a selection; strong and weak results do not stand in their true shares. Calls of active or inactive are those of the source.

In the case of `COP(=O)(/N=C1/CC(CCCO)=CC(c2ccc(CN3CCCC3)cc2)N1Cc1sc2ccccc2c1Cl)OC` (stereo not given), the composite z-score came out at 0.101 in experiment [1]; 0.11 in experiment [3]; 0.555 in experiment [4]; 0.317 in experiment [5]; 0.127 in experiment [6]; 0.222 in experiment [7]. In addition, the composite z-score in [8] stood at 1.11; in experiment [9], 1.1. Further, the z-score in experiment [2] was inactive: 0.922; in experiment [10], inactive: 0.0951.
Take `COP(=O)(/N=C1/CC(c2ccc(CO)cc2)=CC(C2CC2)N1Cc1cc2c(cc1Br)OCO2)OC` (stereo not given): the composite z-score came out at 0.697 in experiment [1]; 1.7 in experiment [3]; 0.173 in [4]; 0.475 in [5]; 0.426 in experiment [6]; 0.0255 in experiment [7]. In addition, the figures for the composite z-score in experiment [8] and in experiment [9] were 0.316 and 0.733, respectively. Also, the z-score in experiment [2] is inactive: -2.59; in experiment [10] it was inactive: -1.5.
As to `O=P(/N=C1/CC(CCCO)=CC(c2ccc(CN3CCCC3)cc2)N1Cc1sc2ccccc2c1Cl)(Oc1ccccc1)Oc1ccccc1` (stereo not given), the composite z-score in experiment [1] was 0.126; in experiment [3], 2.62; in experiment [4], -0.149; in [5] it was -0.178; in [6], 0.0311; in experiment [7], -0.0797. Besides, the results for the composite z-score in [8] and in [9] were 0.253 and 0.282, respectively. For the same molecule, the z-score was inactive: -5.16 in experiment [2] and inactive: -0.241 in [10].
Turning to `COP(=O)(/N=C1/CC(c2ccc(CO)cc2)=CC(c2cccs2)N1C)OC` (stereo not given), the composite z-score in experiment [1] was 0.352; in experiment [3], 0.866; in experiment [4], 0.43; in experiment [5], 1.24; in experiment [6], -0.142; in [7] it was 0.164. The composite z-score in [8] came out at 0.875; in experiment [9], 1.02. In addition, the z-score was inactive: 0.231 in experiment [2] and inactive: -0.53 in experiment [10].
With `O=P(/N=C1/CC(CCCO)=CC(C2CC2)N1Cc1cc2c(cc1Br)OCO2)(Oc1ccccc1)Oc1ccccc1` (stereo not given), the composite z-score in experiment [1] was -0.075; in experiment [3], 3.15; in experiment [4], 0.365; in experiment [5], -0.237; in experiment [6], 0.32; in experiment [7], -0.0828. Moreover, the composite z-score in experiment [8] stood at 0.164; in experiment [9], 0.867. For the same molecule, the z-score in experiment [2] is inactive: -4.91; in [10], inactive: 0.101.
Take `O=P(/N=C1/CC(c2ccc(CO)cc2)=CC(C2CC2)N1Cc1cc2c(cc1Br)OCO2)(Oc1ccccc1)Oc1ccccc1` (stereo not given): the composite z-score in experiment [1] came out at 1.54; in experiment [3] it was 3.06; in experiment [4], 0.427; in experiment [5], 0.119; in [6] it was 1.11; in experiment [7], 0.163. In addition, the composite z-score in [8] was 0.999; in experiment [9] it was 0.689. For the same molecule, the z-score is inactive: -1.64 in [2] and inactive: 0.411 in experiment [10].
Take `CN1/C(=N\P(=O)(Oc2ccccc2)Oc2ccccc2)CC(c2ccc(CO)cc2)=CC1c1cccs1` (stereo not given): the composite z-score in experiment [1] was 0.714; in [3], 2.88; in experiment [4] it was -0.0894; in experiment [5], -0.929; in experiment [6], 0.643; in experiment [7], 0.156. Further, the results for the composite z-score in [8] and in [9] were 0.29 and 0.625, respectively. The z-score in experiment [2] is inactive: 0.0787; in experiment [10], inactive: -0.147.
For the molecule `O=P(/N=C1/CC(CCCO)=CC(c2cccs2)N1Cc1cc2c(cc1Br)OCO2)(Oc1ccccc1)Oc1ccccc1` (stereo not given), the composite z-score was found to be 1.35 in [1]; 3.35 in [3]; 0.25 in experiment [4]; 0.317 in [5]; 1.1 in experiment [6]; 0.0238 in [7]. The figures for the composite z-score in [8] and in [9] were -0.136 and 0.628, respectively. Moreover, the figures for the z-score in [2] and in experiment [10] were inactive: 0.141 and inactive: -0.103, respectively.
For `COP(=O)(/N=C1/CC(c2ccc(CO)cc2)=CC(C2CC2)N1C)OC` (stereo not given), the composite z-score in experiment [1] is -0.0444; in [3], 0.366; in experiment [4] it was -0.111; in [5] it was 0.461; in experiment [6], -0.067; in experiment [7] it was -0.0687. In addition, the composite z-score was 0.294 in [8] and -0.0139 in experiment [9]. For the same molecule, the results for the z-score in [2] and in experiment [10] were inactive: -2.03 and inactive: -1.16, respectively.
For the molecule `O=P(/N=C1/CC(CCCO)=CC(C2CC2)N1Cc1cccc(OC(F)(F)F)c1)(Oc1ccccc1)Oc1ccccc1` (stereo not given), the composite z-score in [1] is 0.46; in [3], 3.1; in experiment [4] it was -0.107; in experiment [5], 0.287; in [6], -0.0317; in [7], -0.179. Also, the composite z-score in experiment [8] was 0.0202; in [9], 0.272. Further, the values for the z-score in experiment [2] and in [10] were inactive: -2.03 and inactive: 0.139, respectively.
In the case of `COP(=O)(/N=C1/CC(CCCO)=CC(c2cccs2)N1C)OC` (stereo not given), the composite z-score in experiment [1] amounted to 0.282; in experiment [3], 2.53; in experiment [4], 0.728; in experiment [5], 1.43; in experiment [6], 0.643; in experiment [7], 0.696. For the same molecule, the composite z-score in [8] is 1.73; in experiment [9], 0.962. Besides, the z-score in experiment [2] is inactive: 0.297; in [10] it was inactive: -1.51.
Regarding `CN1/C(=N\P(=O)(Oc2ccccc2)Oc2ccccc2)CC(CCCO)=CC1c1ccc(CN2CCCC2)cc1` (stereo not given), the composite z-score in experiment [1] is 0.633; in [3], 2.67; in experiment [4], 0.103; in experiment [5], 1.01; in [6], 1.13; in experiment [7] it was 0.224. The composite z-score in experiment [8] was found to be 0.733; in experiment [9] it was 0.626. The z-score in experiment [2] is inactive: -0.739; in [10], inactive: -0.518.
Regarding `COP(=O)(/N=C1/CC(CCCO)=CC(C2CC2)N1Cc1sc2ccccc2c1Cl)OC` (stereo not given), the composite z-score amounted to 1.38 in [1]; 1.32 in [3]; 1.02 in experiment [4]; 0.392 in [5]; 1.13 in experiment [6]; 0.69 in experiment [7]. For the same molecule, the values for the composite z-score in experiment [8] and in experiment [9] were 1.1 and 1.25, respectively. For the same molecule, the z-score in experiment [2] is inactive: -1.09; in [10], inactive: -0.0935.
In the case of `COP(=O)(/N=C1/CC(CCCO)=CC(c2ccc(CN3CCCC3)cc2)N1Cc1cc2c(cc1Br)OCO2)OC` (stereo not given), the composite z-score in experiment [1] is 0.408; in experiment [3], 0.477; in experiment [4], 0.595; in [5], 1.57; in [6], -0.188; in experiment [7], 0.286. The composite z-score in experiment [8] was determined as 0.643; in experiment [9], 1. Besides, the z-score was inactive: -1.95 in experiment [2] and inactive: -1.66 in experiment [10].
As to `O=P(/N=C1/CC(c2ccc(CO)cc2)=CC(c2cccs2)N1Cc1cccc(OC(F)(F)F)c1)(Oc1ccccc1)Oc1ccccc1` (stereo not given), the composite z-score in [1] is 0.992; in [3] it was 3.04; in [4], 0.149; in experiment [5], 0.155; in experiment [6] it was 0.726; in [7] it was 0.0267. Further, the composite z-score in experiment [8] turned out to be 0.488; in experiment [9] it was 0.899. In addition, the values for the z-score in [2] and in experiment [10] were inactive: -1.14 and inactive: -0.385, respectively.
